AlphaSeq binding of Ab-14 light chain variants to a spike HR2 peptide

From the AlphaSeq antibody data of Li et al. 2023 (doi:10.1038/s41467-023-39022-2), copy in the FLAb collection.

Binding partner: SARS-CoV-2 spike HR2 peptide, sequence PDVDLGDISGINAS.

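The parent was found by panning a naive human phage display library on the peptide. These sequences belong to a second round, designed from the earlier measurements on random variants of the parent. Group labels follow the data file (En: ensemble of fine-tuned language models; GP: Gaussian process model; HC: hill climbing; Gen: genetic algorithm; Gibbs: Gibbs sampling; a sequence that several methods proposed may carry one label only). AlphaSeq pools MATa yeast showing the antibodies with MATalpha yeast showing the peptide. Pairs that bind mate more often; barcode pairs of the diploids are counted by sequencing. Scores were corrected for input abundance and mapped to Kd with protein pairs of known affinity run in the same pool. Mating was done six times.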

Each scFv is VH, a 15-residue (Gly4Ser)3 linker, VL, as in the parent Ab-14, and differs from it in the CDRs of the light chain only.
VH: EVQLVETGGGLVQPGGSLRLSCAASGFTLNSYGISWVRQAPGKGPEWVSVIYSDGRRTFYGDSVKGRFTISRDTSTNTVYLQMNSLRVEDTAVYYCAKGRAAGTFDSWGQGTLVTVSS
VL: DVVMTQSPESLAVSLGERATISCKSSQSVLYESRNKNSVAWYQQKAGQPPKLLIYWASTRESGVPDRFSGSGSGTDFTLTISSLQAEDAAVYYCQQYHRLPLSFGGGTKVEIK

Variants are written as CDR1, CDR2 and CDR3 of the light chain (limits as in the source). Parent: KSSQSVLYESRNKNSVA, WASTRES, QQYHRLPLS. Variants here have more than six changes. The Kd shown is the geometric mean over detected replicates; a lower Kd is a better binder. Where no diploid with the target was found in any replicate, the entry reads "nd": below detection, most likely a poor binder, though not proof of it. Three control strains display no target. For all light chain designs, 4% of the pairings with them gave a signal, with a median of 430 nM and one signal in twenty below 38 nM, so weak values seen in few replicates may be background. For each scFv, signals with the empty controls are counted beside the result. Of ten entries with the parent sequence, four were seen in most replicates (averages 2.2 nM to 240 nM), three in one and three in none, so single entries are noisy. The authors averaged sequences with at least three values out of six and counted those with two or fewer as poor binders. The range of this assay differs from that of the first round, and the authors advise against merging the two.

* IISELYNQATGMRNNVA, NNATRED, QQYDRLPLS [En_Gen] -> nd (0 of 6 replicates; controls 0 of 18)
* KLSGEMEYESRNKNSVA, HASLRES, QDYHRLPLQ [GP_Gibbs] -> 1.4 nM (6 of 6 replicates; controls 0 of 18)
* RFDQTEQEGIQDKNSVA, QGSQSGS, QHYSRLPLS [En_Gibbs] -> 93 nM (6 of 6 replicates; controls 2 of 18)
* SITQLVAYGNRNKSSVA, QMSTRES, QQYDRLPLS [En_HC] -> 44 nM (6 of 6 replicates; controls 1 of 18)
* SVQYFPEESLRGASAIA, DVNIAVM, QQYSRLPLA [En_Gibbs] -> 2.1 nM (6 of 6 replicates; controls 0 of 18)
* TIADLMGHISKNMNNVA, DMDTRGE, QQYNRLPLS [En_Gen] -> 570 pM (6 of 6 replicates; controls 1 of 18)
* KILGEIENQTYNRNSVA, HSTTRED, QSYHRLPLS [En_HC] -> 3.1 nM (6 of 6 replicates; controls 4 of 18)
* KLSQSGLYGMRNKMSVA, QASQRLS, QQYHRLPLS [GP_Gibbs] -> 6.2 nM (6 of 6 replicates; controls 0 of 18)
* KVMQSELYEDRNANNVA, NGSTRES, QQYHRLPLS [GP_Gibbs] -> 4.1 nM (6 of 6 replicates; controls 3 of 18)
* KLSMITGHMSMAKNNVA, EMVTREK, QQYNRLPLS [En_Gen] -> 1.5 nM (6 of 6 replicates; controls 1 of 18)
* KLYFNVGTASHNKQSIA, DMERRED, QQYHRLPLS [En_HC] -> 3.1 nM (6 of 6 replicates; controls 2 of 18)
* MMSQVTGMGQRHRNNVA, QTSEREP, QQYDRLPLD [En_Gen] -> 2.3 nM (6 of 6 replicates; controls 3 of 18)
* KLDQSELYQSRNKQSVA, NASQRES, QQYHRLPLS [GP_Gibbs] -> 1.2 nM (6 of 6 replicates; controls 1 of 18)
* LQSQSELLESRNHNSVA, HASTRMD, QQYHRLPLS [GP_Gibbs] -> 52 nM (5 of 6 replicates; controls 0 of 18)
* KIEWYPMENRGTIQAIA, EASTIYN, QQYMHLPLS [En_Gibbs] -> nd (0 of 6 replicates; controls 0 of 18)
* TIAQSMLYLSNLKNSIA, QAETRES, QQYHRLPIM [En_HC] -> 4.7 nM (5 of 6 replicates; controls 0 of 18)
* KLHQSMGYEQRNKNSVA, SASTRSH, QQYHRLPLS [GP_Gibbs] -> 3.5 nM (6 of 6 replicates; controls 0 of 18)
* KLSNMYEYESRWKNSVA, NASTREL, QQYHRLPLS [GP_Gibbs] -> 1.4 nM (6 of 6 replicates; controls 1 of 18)
* KLQMSHQGNPKDHYAIA, EGISATT, QQYARLPLM [En_Gibbs] -> 170 nM (5 of 6 replicates; controls 0 of 18)
* KLSGFHQVESINKSNVA, EMVTRES, QQYDRLPLS [En_HC] -> 89 nM (6 of 6 replicates; controls 1 of 18)
* TIGQTLMTGVRNRSNVA, EVSQRLN, QQYDRLPLF [En_Gen] -> 15 nM (6 of 6 replicates; controls 3 of 18)
* TMNVELAYGVPEMNNVA, AGSQKLA, QQYYRLPLS [En_Gibbs] -> 2.0 nM (6 of 6 replicates; controls 2 of 18)
* KVSQEMLYESRNANSVA, NASQREE, QQYHRLPLS [GP_Gibbs] -> 1.0 nM (6 of 6 replicates; controls 0 of 18)
* ELFFNDFQLAIESNSIA, HASLREV, QQYAHLPLV [En_Gibbs] -> 16 nM (2 of 6 replicates; controls 0 of 18)
* QIYQAMHTLSQMKDNVA, DVNERGQ, QQYSRLPLS [En_Gen] -> 1.2 nM (6 of 6 replicates; controls 1 of 18)
* MISQLMNMGQFAINSVA, QASLRNE, QQYDRLPLI [En_Gen] -> 30 nM (6 of 6 replicates; controls 0 of 18)
* HITYGMYVSGRNHSSIA, QAEERAK, QQYDRLPLI [En_Gen] -> 4.0 nM (6 of 6 replicates; controls 0 of 18)
* ALSWSQGGESRNPNSVA, HASTRES, QQYHRLPLS [GP_Gibbs] -> 1.5 nM (6 of 6 replicates; controls 2 of 18)
* KLMMLGDYESRNKNNVA, QASQREQ, QQYHRLPLS [GP_Gibbs] -> 280 pM (6 of 6 replicates; controls 2 of 18)
* HLSDSIEKMASNARNIA, DETETEM, QQYYTLPLS [En_Gibbs] -> 27 nM (6 of 6 replicates; controls 2 of 18)
* KITQMVTGEQHNKNSIA, QMTTREG, QQYHRLPLS [En_HC] -> 10 nM (6 of 6 replicates; controls 0 of 18)
* HMSMLTLQGVRHVNSVA, QMTTREN, QQYDHLPLS [En_Gen] -> 4.4 nM (6 of 6 replicates; controls 0 of 18)
* RFDAAMPYANSNINSIA, DKAIQAD, QQYNRLPLS [En_Gibbs] -> 1.3 nM (6 of 6 replicates; controls 2 of 18)
* SMYPFEVAIGEGTNNVA, HVSVRAL, QQYERLPLV [En_Gibbs] -> 110 nM (6 of 6 replicates; controls 0 of 18)
* HIDDFEPSEGLKWNAIA, GDATRLQ, QAYARLPLS [En_Gibbs] -> 45 nM (6 of 6 replicates; controls 2 of 18)